Read-outs that look alike come from different tables or passages of the source.
Key:
HDAC1 = HDAC1 (Rattus norvegicus, UniProt Q4QQW4); assay type: biochemical; details: read-out: Liver extract B61 HDAC1 IC50
[1] = test system: tubulin acetylation and Hsp70 in A2780 ovarian carcinoma cells; assay: Western blot of acetylated tubulin and Hsp70 in A2780 cells (HDAC6 readout); assay type: cell-based, human; details: 24 h

By UniProt entry, the sequences of proteins in these tests, tags left out.
UniProt Q4QQW4, whole entry: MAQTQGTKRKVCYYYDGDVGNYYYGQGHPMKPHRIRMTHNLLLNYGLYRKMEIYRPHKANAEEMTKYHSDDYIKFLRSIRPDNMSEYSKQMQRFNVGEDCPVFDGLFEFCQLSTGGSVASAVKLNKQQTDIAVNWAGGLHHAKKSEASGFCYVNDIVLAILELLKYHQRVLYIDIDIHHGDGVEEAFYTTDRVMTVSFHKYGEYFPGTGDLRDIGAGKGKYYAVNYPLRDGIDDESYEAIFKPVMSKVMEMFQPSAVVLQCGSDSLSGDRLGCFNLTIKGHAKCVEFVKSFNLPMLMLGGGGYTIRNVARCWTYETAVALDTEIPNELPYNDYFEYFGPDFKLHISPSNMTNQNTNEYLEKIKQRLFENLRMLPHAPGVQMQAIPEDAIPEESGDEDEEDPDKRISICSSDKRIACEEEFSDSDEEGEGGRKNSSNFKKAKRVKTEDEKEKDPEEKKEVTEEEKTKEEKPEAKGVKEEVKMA

Cc1[nH]c2ccccc2c1CCNCc1ccc(/C=C/C(=O)NO)cc1 [Panobinostat]
IC50 (HDAC1): 47 ± 5 nM

CC(/C=C/C(=O)NO)=C\[C@@H](C)C(=O)c1ccc(N(C)C)cc1 [TSA, Trichostatin A]
IC50 (HDAC1; rat liver extract, substrate B61): 13.3 ± 1.4 nM

O=C(CCCCCCC(=O)Nc1ccccc1)NO [Vorinostat, suberoylanilide hydroxamic acid]
concentration at which tubulin acetylation (and Hsp70 induction) is evident [1]: 100 nM
